Values quoted from earlier work as cited in patent US20260085262A1, “ACQ FLUORESCENCE PROBE COMPOSITION, CMC DETERMINATION METHOD, STAIN CLEANING CONCENTRATION DETERMINATION METHOD, DETERGENT DISPENSING CONTROL METHOD, AND DETERGENT DISPENSING CONTROL SYSTEM” (GUANGZHOU BLUEMOON INDUSTRIAL CO., LTD., priority 2024, published 2026).

Settings: solvent; cited from earlier work

n-Butanol
Flash point: 37 °C | Viscosity: 2.95 mPa · s
